Assay results published in US20260232826A1, “ANTIBODY-DRUG CONJUGATES AND THEIR USES” (Mablink Bioscience, priority 2022, published 2026).

By UniProt entry, the sequences of proteins in these tests, tags left out. Residues count along the entry.
UniProt P15328, 25-234 limits assumed: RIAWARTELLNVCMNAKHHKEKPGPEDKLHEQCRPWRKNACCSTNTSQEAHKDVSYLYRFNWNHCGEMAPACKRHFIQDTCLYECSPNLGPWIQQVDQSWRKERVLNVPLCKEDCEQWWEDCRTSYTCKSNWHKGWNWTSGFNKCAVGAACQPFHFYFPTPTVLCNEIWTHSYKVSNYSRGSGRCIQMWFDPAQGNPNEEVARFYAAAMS

Key:
OV-90 cancer model = assay: In vivo efficacy, OV-90 xenograft; conditions: IV once at 30 mg/kg (FIG. 11)
Description: (§1) Four to five-week-old female CB-17 severe combined immunodeficient (SCID) mice are obtained and quarantined for 7 days prior to study initiation. Mice are inoculated subcutaneously with cells (5-10×10^6 cells per mouse) resuspended in PBS (OV-90, SW-620, KB, BT-474 cell lines) or 50% BD Matrigel (Corning®) in PBS (PA-1, IGROV-1, OVCAR-3, NCI-H2110 cell lines). When average tumor volume reached about 120-150 mm^3 mice are randomized (typically 7 mice per group) and treated by a single (unless stated otherwise) intravenous injection of PBS (negative control) or investigated antibody-drug conjugate. Tumor volumes are measured every 3-5 days using a caliper device (length×width) and calculated using the following formula V=4/3×π×R3, where R represents the radius. Mice are sacrificed when the tumor volume exceeded 1500 mm^3 or in case of ulceration of the tumor.
as §1, with “were” for “are”, “obtained from Janvier labs (Le Genest-Saint-Isle, France)” for “obtained”, “V=4/3×π×R^3,” for “V=4/3×π×R3,”

[1] = Pulmonary inflammatory and toxicity evaluation in mice; set-up: species or system C57/BL6 mice; Lung inflammatory level by CD45 expression (leucocyte infiltration): key to the marks not given beside the values; conditions: mouse, in vivo
Description: Bleomycin has been widely used in rodents to model pulmonary fibrosis for the study of mechanisms involved in fibrogenesis and for evaluation of potential therapies. To assess ADC pulmonary toxicity, bleomycin-induced pulmonary fibrosis was induced in mice following known procedures as described by Walter and Kleeberger, Mouse Models of Bleomycin-Induced Pulmonary Fibrosis, 2008, Curr. Protoc. Pharmacol. 40:5.46.1-5.46.17. At day 0, 4 and 8, female C57/BL6 mice (Janvier Labs, Le Genest-Saint-Isle, France) were lightly anesthetized with isoflurane and intranasally administered with 20 μL of 1 mg/kg bleomycin PBS solution (Bleomycine Bellon, 15 mg for injection) or PBS (negative control mice). Non-bleomycin-conditioned mice were included as a negative control group. At day 11, mice (n=6 animals per group) were treated with tested conjugates (10 mg/kg i.p.) and were monitored for apparent signs of toxicity and weight loss during the duration of the experiment. […] At day 25 all mice were sacrificed, broncho-alveolar supernatant was obtained (by broncho-alveolar lavage) and lungs organs were harvested, weighted, and fixed in 0.1% (w/v) formaldehyde in PBS. After fixation, lungs were rinsed with a 0.02% (w/v) sodium azide in PBS solution and embedded in paraffin for histological staining. Slides were stained with anti-CD45 antibody (Abcam cat #ab10558, 1:500) to quantify level of leucocyte infiltration in the lungs. Secondary biotinylated goat anti-rabbit antibody (Vector Laboratories cat #BA-1000, 1:300) and Avidin-HRP (Vector Laboratories cat #A-2004) were used for detection. Histological experiments and imaging were outsourced at the Centre d'Imagerie Quantitative Lyon-Est (CiQLE) platform (Lyon, France). Random sections of IHC images (30% zoomed) were processed using native functionalities of the Fiji software (developed and maintained by the Laboratory for Optical and Computational Instrumentation of the University of Wisconsin-Madison, USA) to count CD45 positive cells within slides (1 slide per lung) and assess level of leucocyte infiltration. Monitoring of total counts of lymphocytes (CD3/CD4), eosinophils (CCR3/SiglecF), neutrophils (Ly6g/Ly6C) and macrophages (F4/80) in broncho-alveolar supernatants obtained from non-bleomycin-conditioned mice was done by flow cytometry. Inflammatory cytokines levels in broncho-alveolar supernatants obtained from non-bleomycin-conditioned mice were quantified by ELISA. IL-2, IL-4, IL-5, IL-6, IL-9, IL-10, IL-13 were quantified using Bio-Plex Pro™ Mouse Cytokine Th2 Panel (Bio-Rad cat #L60000UKVT), following manufacturer's instructions. TGF-β and IL-17 were quantified using Mouse TGF-beta 1 DuoSet and Mouse IL-17 DuoSet ELISA kits respectively (R&D systems cat #DY1679 and DY421), following manufacturer's instructions.
Statistical significance was evaluated using one-way ANOVA (Tukey method) using GraphPad Prism 9 software. p-values are represented as * (p<0.033), ** (p<0.002), *** (p<0.0002), and **** (p<0.0001) and “ns” stands for non-significant (p>0.123).

[2] = target: T1, recombinant human folate receptor alpha protein (Homo sapiens, UniProt P15328); assay: kd (1/s)
T1 construct: purchased Sino Biological 11241-H08H
Description: Table printed on a drawing sheet, FIGURE 5
Head of the field: kd (1/s)
Footnotes: ka: association rate constant, mean calculated over replicates / s.d. ka: standard deviation of association rate constant / kd: dissociation rate constant, mean calculated over replicates / s.d. kd: standard deviation of dissociation rate constant / KD: affinity constant, calculated as kd/ka / s.d. KD: standard deviation of affinity constant / n.d.: not determined
The patent's description of the figure: FIG. 5 represents in vitro surface plasmon resonance (SPR) binding experiments of conjugates against recombinant human folate receptor alpha protein, according to example 8.
First copying reader's note: Records are a mix of naked antibodies and their antibody-drug conjugates; the numbers 5, 10, 15, 20 at the left margin are line numbers, not table content.
Where the first naming reader finds the target: description_of_the_figure: binding experiments of conjugates against recombinant human folate receptor alpha protein

[3] = Mice tolerability experiment (SCID mice); type: in vivo
Procedure: To assess mice preclinical therapeutic index, mouse tolerability experiments were performed with F-VA-EXA, F-LALA-VA-EXA and M-SORAV conjugates. […] Mice were carefully monitored for weight loss or apparent signs of toxicity over the course of 21 days.

[4] = rat, in vivo, iv, 5 mg/kg
SW-620 cancer model = assay: In vivo efficacy, SW-620 xenograft; set-up: species or system SCID mice
Description: as §1
as §1, with “were” for “are”, “obtained from Janvier labs (Le Genest-Saint-Isle, France)” for “obtained”, “V=4/3×π×R^3,” for “V=4/3×π×R3,”

FIGURE 19 = assay: FIGURE 19
Description: Table printed on a drawing sheet, FIGURE 19
The patent's description of the figure: FIG. 19 represents in vivo rat pharmacokinetic assessment of total mAb, total ADC and free exatecan sub-components of conjugates, according to example 14.
First reader's note: Pharmacokinetic parameters refer to the Total ADC analyte of each conjugate.

KB cancer model = assay: In vivo efficacy, KB xenograft; set-up: species or system SCID mice; conditions: IV once at 3, 6 and 12 mg/kg; NEG-VA-EXA 12 mg/kg (FIG. 13)
Description: as §1
as §1, with “were” for “are”, “obtained from Janvier labs (Le Genest-Saint-Isle, France)” for “obtained”, “V=4/3×π×R^3,” for “V=4/3×π×R3,”

cancer xenograft models = assay: In vivo xenografts experiments overall (effective dose range); set-up: species or system SCID mice; conditions: Table 10
Description: as §1
as §1, with “were” for “are”, “obtained from Janvier labs (Le Genest-Saint-Isle, France)” for “obtained”, “V=4/3×π×R^3,” for “V=4/3×π×R3,”

B1: F-VA-EXA (conjugate)
heavy chain: EVQLVESGGGVVQPGRSLRLSCSASGFTFSGYGLSWVRQAPGKGLEWVAMISSGGSYTYYADSVKGRFAISRDNAKNTLFLQMDSLRPEDTGVYFCARHGDDPAWFAYWGQGTPVTVSSASTKGPSVFPLAPSSKSTSGGTAALGCLVKDYFPEPVTVSWNSGALTSGVHTFPAVLQSSGLYSLSSVVTVPSSSLGTQTYICNVNHKPSNTKVDKKV[gap - human IgG1 Fc]
light chain: DIQLTQSPSSLSASVGDRVTITCSVSSSISSNNLHWYQQKPGKAPKPWIYGTSNLASGVPSRFSGSGSGTDYTFTISSLQPEDIATYYCQQWSSYPYMYTFGQGTKVEIKRTVAAPSVFIFPPSDEQLKSGTASVVCLLNNFYPREAKVQWKVDNALQSGNSQESVTEQDSKDSTYSLSSTLTLSKADYEKHKVYACEVTHQGLSSPVTKSFNRGEC
modifications: N-methyl
OV-90 cancer model
  toxicities observed in OV-90 xenograft study: No toxicities were observed
[1]
  Lung inflammatory level by CD45 expression (leucocyte infiltration): ++
  inflammatory cytokine levels in broncho-alveolar supernatants compared to untreated group: no significant increase in cytokine levels
  leucocyte inflammatory infiltration (IHC CD45) compared to untreated group: no significant increase
  lymphocyte counts in broncho-alveolar supernatants compared to untreated control group: significant increase in lymphocyte counts
  macrophages, neutrophils and eosinophils counts in broncho-alveolar supernatants compared to untreated control group: no statistically significant increase
[1]; ip, 10 mg/kg
  leucocyte inflammatory infiltration (IHC CD45) compared to bleomycin-conditioned control group: significant increase
[2]
  kd: 0.0306 s⁻¹
[3]; Table 10
  Maximum Tolerated Dose in SCID mice (MTD): Above 200 mg/kg
[3]; single intraperitoneal dose of 200 mg/kg, 21 days (FIG. 18)
  tolerability in SCID mice: well tolerated with no apparent signs of toxicity
[4]
  clearance rates: slow clearance rates
  half-life: 13 to 15 days
SW-620 cancer model; IV once at 1, 3 and 6 mg/kg, NEG-VA-EXA 6 mg/kg (FIG. 10)
  antitumor activity, SW-620 xenograft: equally highly active at a dose of 1 mg/kg and above
SW-620 cancer model; IV once at 5, 10 or 15 mg/kg (FIG. 9)
  antitumor activity, SW-620 xenograft: highly active at a dose of 5 mg/kg and above
FIGURE 19
  AUC0-inf: 3501 µM/day
  Clearance rate: 5.0 mL/day/kg
  Vss (steady-state Vd): 110 mL/kg
  half-life: 13.5 days
KB cancer model
  antitumor activity, KB xenograft: equally active at a dose of 3 mg/kg and above
Cancer xenograft models
  Effective dose (ED) range based on in vivo xenografts experiments (SCID mice): 1 to 10 mg/kg

Like-named read-outs stand apart in the source and are kept apart here.
